Test system: scalp of a human subject (hairline recession, hair loss and thinning)
Test: Topical administration to the scalp of a human subject with hairline recession, hair loss and thinning
Details: same human subject; 2% miconazole nitrate topical twice per day

How did the “results compared with previous administration of minoxidil (5%) or finasteride (1.25 mg daily), including both in combination” value turn out when `Clc1ccc(COC(Cn2ccnc2)c2ccc(Cl)cc2Cl)c(Cl)c1` (stereo not shown) [miconazole] was run?
The value was “superior”.

— patent US20250032457A1, “METHODS OF TREATING ANDROGENIC ALOPECIA AND/OR SKIN CONDITIONS” (priority 2020, published 2025)
